One data set has as its system SK-BR-3 cells (HER2^++). As to the kind of experiment: Cell viability assay (MTS), targeted protein toxin mediated cell killing. The data set is classed as cell-based, human. Here is the method: After treatment the cells were incubated for 72 hr at 37° C. before the cell viability was determined by a MTS-assay, performed according to the manufacturer's instruction (CellTiter 96® AQueous One Solution Cell Proliferation Assay, Promega). Briefly, the MTS solution was diluted 20× in DMEM without phenol red (PAN-Biotech GmbH) supplemented with 10% FBS. The cells were washed once with 200 μL/PBS well, after which 100 μL diluted MTS solution was added/well. The plate was incubated for approximately 20-30 minutes at 37° C. Subsequently, the OD at 492 nm was measured on a Thermo Scientific Multiskan FC plate reader (Thermo Scientific). For quantification the background signal of ‘medium only’ wells was subtracted from all other wells, before the cell viability percentage of treated/untreated cells was calculated, by dividing the background corrected signal of treated wells over the background corrected signal of the untreated wells (×100).

The conditions of data set [1]: in monkeys; cited from earlier work.

As for “trastuzumab-(Cys-L-SO1861)^4: trastuzumab conjugated to SO1861-EMCH via cysteine residues, DAR4”, the “cell killing activity at high concentrations” value in the data set with SK-BR-3 cells (HER2^++) (titrated on 50 pM trastuzumab-saporin, high concentrations, competition for HER2) is listed as “cell killing activity is reduced”. In addition, the “cell killing activity at higher concentrations” value with SK-BR-3 cells (HER2^++) (titrated on fixed 50 pM pertuzumab-dianthin, higher concentrations) is “still effective”. With “ado-trastuzumab emtansine: conjugation of DM1 to trastuzumab”, the “enhancement of the tolerable dose of DM1 by conjugation to trastuzumab” value in data set [1] is “at least two-fold”.

(Values after US20230248845A1, “COMBINATION OF AN ANTIBODY-DRUG CONJUGATE AND AN ANTIBODY-SAPONIN CONJUGATE” (SAPREME TECHNOLOGIES B.V., priority 2020, published 2023).)
